From patent US8328898B2, “Environment-friendly carbon-nano synergistic complex fertilizers” (priority 2007, dated 2012)

What was measured:
[1] = pH changes in 1 mol/L solution (Experiment 5); type: physicochemical; settings: 298K
[2] = Ion concentration ratio HCO3^−/H2CO3 in 1 mol/L solution (Experiment 4); type: physicochemical; settings: 298k
Text: The amount of HCO3^−/H2CO3 existing in soil is important for promoting root development, improving the environment around the roots, and is playing an important role of buffering by reducing the pH increased by fertilizer application in soil. Therefore, determination of HCO3^−/H2CO3 ratios could sufficiently show whether the soil conditions are good or not. Experimental results in Table 4 indicate that the amount of H2CO3 is higher in soil applied with carbon-nano synergistic ammonium bicarbonate than that in soil applied with ammonium bicarbonate, and this higher H2CO3 amount makes HCO3^−/H2CO3 ratio reduce. […] Since the evaporation loss of ammonia is highest on the 15th day after fertilizer application, during this period, lower pH value caused by stabilized H2CO3 in soil could obviously reduce the evaporation of ammonia and the emission of green house gas CO2, and then increase the nitrogen utilization ratio, and prolong the longevity of the fertilizer.

[3] = Ion concentration ratio HCO3^−/CO3^= in 1 mol/L solution (Experiment 3); type: physicochemical; settings: 298k
Text: Carbonate ion concentration ratio of HCO3^−/CO3^=/% in soil is affected obviously by carbon-nano synergistic ammonium bicarbonate. […] The emission process of CO2 is the alkalization process of HO^− entering the solution. When the forming amount of CO3^= in soil solution increases, the emission loss of CO2 increases, and the ratio of HCO3^−/CO3^= reduces comparatively; when the stability of HCO3^−is required to be enhanced, the ratio of HCO3^−/CO3^= increases comparatively.

[4] = N2O—N annual emission in the field, 280 days accumulated data (Experiment 8, Table 10)

**Q.** What does the source list for ammonium bicarbonate [ABC]?
**A.** pH value ([1]; test time 0 d): 7.668; pH value ([1]; test time 0.125 d): 7.893; pH value ([1]; test time 0.25 d): 8.350; pH value ([1]; test time 1 d): 8.936; pH value ([1]; test time 2 d): 9.128; pH value ([1]; test time 3 d): 9.242; pH value ([1]; test time 6 d): 9.315; pH value ([1]; test time 9 d): 9.338; pH value ([1]; test time 13 d): 9.242; pH value ([1]; test time 16 d): 9.283; pH value ([1]; test time 19 d): 9.272; HCO3^−/H2CO3 ion concentration ratio ([2]; test time 0 d): 20; HCO3^−/H2CO3 ion concentration ratio ([2]; test time 0.125 d): 33; HCO3^−/H2CO3 ion concentration ratio ([2]; test time 0.25 d): 100; HCO3^−/H2CO3 ion concentration ratio ([2]; test time 1 d): 370; HCO3^−/H2CO3 ion concentration ratio ([2]; test time 2 d): 590; HCO3^−/H2CO3 ion concentration ratio ([2]; test time 3 d): 751; HCO3^−/H2CO3 ion concentration ratio ([2]; test time 6 d): 888; HCO3^−/H2CO3 ion concentration ratio ([2]; test time 9 d): 937; HCO3^−/H2CO3 ion concentration ratio ([2]; test time 13 d): 823; HCO3^−/H2CO3 ion concentration ratio ([2]; test time 16 d): 826; HCO3^−/H2CO3 ion concentration ratio ([2]; test time 19 d): 804; HCO3^−/CO3^= ion concentration ratio ([3]; test time 0 d): 380; HCO3^−/CO3^= ion concentration ratio ([3]; test time 0.125 d): 230; HCO3^−/CO3^= ion concentration ratio ([3]; test time 0.25 d): 80; HCO3^−/CO3^= ion concentration ratio ([3]; test time 1 d): 21; HCO3^−/CO3^= ion concentration ratio ([3]; test time 2 d): 13.3; HCO3^−/CO3^= ion concentration ratio ([3]; test time 3 d): 10.4; HCO3^−/CO3^= ion concentration ratio ([3]; test time 6 d): 8.6; HCO3^−/CO3^= ion concentration ratio ([3]; test time 9 d): 8.2; HCO3^−/CO3^= ion concentration ratio ([3]; test time 13 d): 9.3; HCO3^−/CO3^= ion concentration ratio ([3]; test time 16 d): 9.3; HCO3^−/CO3^= ion concentration ratio ([3]; test time 19 d): 9.5; Average of N2O—N annual emission flux [4]: 70.93 μg N2O/m^3-h; N2O—N annual emission flux range [4]: −70-1291 μg N2O/m^3-h; N2O—N emission flux/nitrogen fertilizer applied [4]: 1.36%
